# In US6093742A, “Inhibitors of p38” (Vertex Pharmaceuticals, Inc., priority 1997, dated 2000):
# Sequences of proteins named here, by UniProt entry; tags and fusion partners are left off.
# UniProt Q16539, whole entry: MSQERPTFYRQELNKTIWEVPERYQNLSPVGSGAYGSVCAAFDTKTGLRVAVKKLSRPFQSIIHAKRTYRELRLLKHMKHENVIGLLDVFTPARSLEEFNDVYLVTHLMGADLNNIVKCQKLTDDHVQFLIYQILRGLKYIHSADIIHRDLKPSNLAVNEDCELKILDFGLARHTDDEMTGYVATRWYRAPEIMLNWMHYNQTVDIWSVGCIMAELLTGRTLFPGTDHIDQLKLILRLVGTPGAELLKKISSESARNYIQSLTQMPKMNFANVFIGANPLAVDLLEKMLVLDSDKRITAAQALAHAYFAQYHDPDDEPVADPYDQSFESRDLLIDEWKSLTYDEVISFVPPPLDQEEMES
# Biological target: T1, p38 (Homo sapiens, UniProt Q16539)
# T1 construct: made in house; host or cells: Trichoplusia ni (Tn-368) High-Five insect cells infected with recombinant baculovirus (virus made in Sf9)
# Test: p38 inhibition assay: inhibition of phosphorylation of EGF receptor peptide
# Format: biochemical
# Conditions: activated p38 (5 nM), EGF receptor peptide 200 μM, ATP 100 μM, 30 min at 30° C., pH 7.6, HPLC
# Source text: Two splice variants of human p38 kinase, CSBPl and CSBP2, have been identified. Specific oligonucleotide primers were used to amplify the coding region of CSBP2 cDNA using a HeLa cell library (Stratagene) as a template. The polymerase chain reaction product was cloned into the pET-15b vector (Novagen). The baculovirus transfer vector, pVL-(His)6-p38 was constructed by subcloning a XbaI-BamHI fragment of pET15b-(His)6-p38 into the complementary sites in plasmid pVL1392 (Pharmingen).
# P38 was activated by combining 0.5 mg/ml p38 with 0.005 mg/ml DD-double mutant MKK6 in Buffer B+10 mM MgCl2, 2 mM ATP, 0.2 mM Na2VO4 for 30 minutes at 20° C. The activation mixture was then loaded onto a 1.0×10 cm MonoQ column (Pharmacia) and eluted with a linear 20 column volume gradient to 1.0 M NaCl in Buffer B. The activated p38 eluted after the ADP and ATP. The activated p38 peak was pooled and dialyzed against buffer B+0.2 mM Na2VO4 to remove the NaCl. The dialyzed protein was adjusted to 1.1M potassium phosphate by addition of a 4.0M stock solution and loaded onto a 1.0×10 cm HIC (Rainin Hydropore) column previously equilibrated in Buffer D (10% glycerol, 20 mM β-glycerophosphate, 2.0 mM DTT)+1.1MK2HPO4. The protein was eluted with a 20 column volume linear gradient to Buffer D+50 mM K2HPO4. […]
# The phosphorylated peptide was quantified by HPLC analysis. […]
smiles,measurement,value
O=C(Nc1ccccc1)Nc1cc(Cl)c([N+](=O)[O-])cc1O [Compound 6],IC50,140 nM
